Experimental data taken from ChEMBL document CHEMBL5375979, “Chemical, Biochemical, Cellular, and Physiological Characterization of Leucettinib-21, a Down Syndrome and Alzheimer's Disease Drug Candidate” (J Med Chem, 2023).

Amino acid sequences for entries named in this document (tags omitted). A change or cut given only in a name is not applied to a line headed by its entry.
UniProt P49760, whole entry: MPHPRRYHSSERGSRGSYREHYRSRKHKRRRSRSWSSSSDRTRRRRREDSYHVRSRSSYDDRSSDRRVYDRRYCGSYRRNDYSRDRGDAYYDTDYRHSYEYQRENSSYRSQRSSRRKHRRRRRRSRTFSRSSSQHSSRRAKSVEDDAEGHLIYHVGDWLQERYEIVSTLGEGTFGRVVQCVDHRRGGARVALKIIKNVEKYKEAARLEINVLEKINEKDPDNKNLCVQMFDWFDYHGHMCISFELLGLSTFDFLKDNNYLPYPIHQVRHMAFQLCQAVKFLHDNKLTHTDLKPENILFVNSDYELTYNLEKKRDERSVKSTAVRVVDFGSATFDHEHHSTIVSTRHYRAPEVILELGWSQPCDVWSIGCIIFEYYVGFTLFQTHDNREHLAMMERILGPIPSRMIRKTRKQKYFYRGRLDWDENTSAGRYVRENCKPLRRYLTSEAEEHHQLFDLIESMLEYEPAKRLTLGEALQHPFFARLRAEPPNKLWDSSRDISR
UniProt P49759: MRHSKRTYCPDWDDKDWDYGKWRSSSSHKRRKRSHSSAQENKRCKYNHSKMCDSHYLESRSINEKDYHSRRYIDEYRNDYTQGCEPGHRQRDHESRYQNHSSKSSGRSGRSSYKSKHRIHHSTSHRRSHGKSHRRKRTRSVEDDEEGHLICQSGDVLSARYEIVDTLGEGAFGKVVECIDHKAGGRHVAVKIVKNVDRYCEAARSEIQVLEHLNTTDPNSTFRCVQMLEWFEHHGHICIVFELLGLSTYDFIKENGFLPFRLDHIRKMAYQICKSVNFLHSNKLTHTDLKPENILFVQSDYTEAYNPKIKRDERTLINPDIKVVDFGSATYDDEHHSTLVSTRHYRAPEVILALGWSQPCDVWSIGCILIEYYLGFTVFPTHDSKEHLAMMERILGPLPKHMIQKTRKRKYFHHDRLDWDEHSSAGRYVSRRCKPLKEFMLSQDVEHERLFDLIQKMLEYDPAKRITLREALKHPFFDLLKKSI

What was measured:
[1] = target: Dual specificity protein kinase CLK2 (Homo sapiens, UniProt P49760)
[2] = target: Dual specificity protein kinase CLK1 (Homo sapiens, UniProt P49759)
[3] = target: T1, Dual specificity tyrosine-phosphorylation-regulated kinase 3 (Homo sapiens, UniProt O43781)
T1 sequence (O43781 whole entry): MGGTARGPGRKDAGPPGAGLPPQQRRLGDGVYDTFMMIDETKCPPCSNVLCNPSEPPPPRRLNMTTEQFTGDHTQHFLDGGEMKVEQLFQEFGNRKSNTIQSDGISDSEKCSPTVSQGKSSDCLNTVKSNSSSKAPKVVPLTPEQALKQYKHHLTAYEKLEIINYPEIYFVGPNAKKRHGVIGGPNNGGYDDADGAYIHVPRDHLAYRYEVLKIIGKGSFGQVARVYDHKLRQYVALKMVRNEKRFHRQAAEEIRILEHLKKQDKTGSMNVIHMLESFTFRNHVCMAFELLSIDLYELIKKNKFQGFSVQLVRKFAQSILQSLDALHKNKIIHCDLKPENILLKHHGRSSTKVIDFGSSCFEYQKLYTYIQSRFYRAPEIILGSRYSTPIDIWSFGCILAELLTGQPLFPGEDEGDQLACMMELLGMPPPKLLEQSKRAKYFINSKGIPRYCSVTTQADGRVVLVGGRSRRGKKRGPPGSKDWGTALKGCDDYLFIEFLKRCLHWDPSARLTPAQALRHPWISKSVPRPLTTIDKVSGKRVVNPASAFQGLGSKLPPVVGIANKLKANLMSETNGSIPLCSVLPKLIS

Structure (SMILES): O=C1NC(Nc2ccccc2)=N/C1=C\c1ccc2c(c1)OCO2
- IC50 [1]: 587 nM
- IC50 [2]: 56.4 nM
- IC50 [3]: 1850 nM
